Assay results reported in patent publication US8992933B2, “Methods for activating T cells and modulating an immune response” (New York University, priority 2011, dated 2015).

How the values were obtained:
CCR6+ IL-17- TM cells = test: IL-17 induction by cytokine culture of sorted, activated CCR6+IL-17- memory T cells (intracellular staining, FACS); format: cell-based, human; conditions: IL-2-supplemented medium for 6 days, restimulation
Description: (§1) Peripheral Blood Mononuclear Cells (PBMCs) from healthy individuals (New York Blood Center, New York, N.Y.) were prepared using Ficoll-paque plus (GE Amersham, Uppsala, Sweden). Whole blood samples from rheumatoid arthritis patients were purchased from Bioreclamation (New York, N.Y.) and were processed similar to healthy donor blood. All healthy donor and patient samples were consented prior to purchase, were none-identifiable and approved by institutional human subjects board. CD4^+ T cells were isolated using Dynal CD4 Positive Isolation Kit (Invitrogen, Carlsbad, Calif.) directly from purified PBMCs and were >99% pure. CD4^+ T cells were sorted by FACS ARIA cell sorter (BD, San Jose, Calif.) into CD45RO^+ CD25^− memory T (TM) cells. TM cells were activated either by anti-CD3 and anti-CD28 (aCD3/aCD28) coated beads (1:4 beads:cells ratio) for 18-24 hours, or by Phorbol 12-myristate 13-acetate (PMA) and ionomycin for 4 hours and further FACS sorted based on CCR6 and IL-17 expression into CCR6^− IL-17^−, CCR6^+IL-17^+, or CCR6^+IL-17^− subsets (as determined by secretion assay labeling, see below). Sorted cells (>99% pure) were cultured in serum-free Xvivo-15 medium (Lonza, Wakersville, Md.) at 37° C. and 5% CO2 for 6-7 days prior to restimulation with PMA and ionomycin (see below). […]

CCR6- TM cells = test: IL-17 induction by cytokine culture of sorted, activated CCR6-IL-17- memory T cells; format: cell-based, human; conditions: cultured with the cytokine, restimulation
Description: as §1

[1] = tested on: CCR6+ IL-17- memory T cells; test: IL-17 production by sorted mouse memory T cells after culture with IL-2; format: cell-based, wild-type C57B/6 mice; conditions: 6 days in culture with IL-2; CCR6- cells did not
Description: Wild-type C57B6/J mice were purchased from Jackson Laboratories (Bar Harbor, Me.) and all mice were used in accordance with a protocol approved by the animal care and use committee of Sirtris pharmaceuticals. Single cell suspensions were prepared from spleens and peripheral lymph nodes following red blood cell lysis (Sigma-Aldrich, USA). CD4^+ T cells were enriched by magnetic cell sorting using the mouse CD4^+ T cell isolation kit II (Miltenyi Biotec, Auburn, Calif.) in accordance with manufacturers instructions, and these cells were stimulated for 18-24 hours using plate-bound anti-CD3 (eBioscience) and anti-CD28 (BD Biosciences) antibodies as previously described (Sundrud, et al., Science (New York, N.Y.) 2009 324: 1334-1338). Activated T cells were then stained for cell surface receptors and subjected to mouse IL-17 capture assay for FACS sorting into CD62L^loCCR6^−IL-17^−, CD62L^loCCR6^+IL-17^−, or CD62L^loCCR6^+IL-17^+ subsets (see below). Sorted mouse T cell populations were cultured in DMEM medium (Mediatech, Inc., USA) containing 10% FCS (Invitrogen). To expand sorted T cell populations, 10 U/mL recombinant human IL-2 (BD Biosciences) and mouse CD3/CD28 T cell expander beads (1:2 beads:cells ratio) (Invitrogen) were added and cells were cultured for 6 days prior to restimulation. […]

[2] = tested on: CCR6+ IL-17- TM cells from RA patients; test: IL-17 induction in memory T cells from rheumatoid arthritis patients after culture with IL-2; format: cell-based, human; conditions: similar levels to healthy adult donors, CCR6- cells did not
Description: as §1

IL-2: recombinant human IL-2 (BD Biosciences), γc-cytokine
CCR6+ cells initially sorted as IL-17- that expressed IL-17 after culture (CCR6+ IL-17- TM cells): 20-40%
IL-17 expression in CCR6- TM cells (CCR6- TM cells): remained largely IL-17 negative
IL-17 production by CCR6+ IL-17- mouse memory T cells [1]: capable of producing IL-17
IL-17 in CCR6+ IL-17- memory T cells from RA patients [2]: upregulated IL-17
